Source: patent US20220117973A1, “THE ATR KINASE INHIBITOR BAY1895344 FOR USE IN THE TREATMENT OF A HYPER-PROLIFERATIVE DISEASE” (Bayer Aktiengesellschaft, priority 2019, published 2022)
Where “and” joins values, the source holds several entries; their conditions need not be identical. Equal entries are not always repeated.

Tested on: advanced metastatic solid tumors
Details: human, in vivo

C[C@@H]1COCCN1c1cc(-c2ccnn2C)c2ccnc(-c3ccn[nH]3)c2n1 [BAY 1895344, 2-[(3R)-3-methylmorpholin-4-yl]-4-(1-methyl-1H-pyrazol-5-yl)-8-(1H-pyrazol-5-yl)-1,7-naphthyridine]
median treatment duration of the 4 responders: 347 days
objective responders/patients: 1/8 and 1/3 and 2/2
objective response rate (ORR): 30.7%
partial responses (PRs): 7
patients with SD≥4 m: 25
patients with durable SD (SD≥4 m): 22 patients
patients with durable SD≥4 m: 3 patients
reduction of the tumor size in one patient with stable disease: −11%
responders (CR, PR or SD≥4 m): 5
responders (PR and SD≥4 m): 32
responders with SD≥4 m: 1
response (PR or SD≥4 m): did not experience any type of response
